Literature values, collected in paper PMC4273976 (ACS chemical biology, 2014).

Biological target: EphA4
Conditions: cited from earlier work

KYLPYWPVLSSL
Kd: ~1000 nM
